# Data taken from ChEMBL document CHEMBL1153420, “Discovery of novel 1-azoniabicyclo[2.2.2]octane muscarinic acetylcholine receptor antagonists” (J Med Chem, 2009).
# The chains behind the UniProt entries cited, without tags or fusion partners.
# UniProt P20309, whole entry: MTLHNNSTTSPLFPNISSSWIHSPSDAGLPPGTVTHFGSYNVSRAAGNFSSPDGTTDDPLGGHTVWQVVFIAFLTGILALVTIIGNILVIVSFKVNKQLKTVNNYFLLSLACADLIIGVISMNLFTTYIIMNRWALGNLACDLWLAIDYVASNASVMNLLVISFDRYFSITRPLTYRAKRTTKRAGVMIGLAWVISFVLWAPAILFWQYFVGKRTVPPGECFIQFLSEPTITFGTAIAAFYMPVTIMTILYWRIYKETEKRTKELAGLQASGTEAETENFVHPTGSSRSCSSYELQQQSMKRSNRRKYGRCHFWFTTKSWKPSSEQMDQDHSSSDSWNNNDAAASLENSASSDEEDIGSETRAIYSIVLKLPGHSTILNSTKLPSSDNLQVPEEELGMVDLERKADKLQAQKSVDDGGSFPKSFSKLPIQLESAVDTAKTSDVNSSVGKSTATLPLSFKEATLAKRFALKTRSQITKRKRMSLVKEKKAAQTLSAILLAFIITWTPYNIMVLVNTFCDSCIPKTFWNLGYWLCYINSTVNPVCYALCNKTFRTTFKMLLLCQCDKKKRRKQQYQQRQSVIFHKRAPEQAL
# How the values were obtained:
# [1] = biological target: T1, Muscarinic acetylcholine receptor M3 (Homo sapiens, UniProt P20309); test: Antagonist activity at human muscarinic M3 receptor assessed as inhibition of carbachol-induced bronchus contraction; assay type: functional; conditions: read-out: pA2 (converted)
# In short: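 Human bronchial strips from primary, secondary or tertiary airways obtained at autopsy, mounted on force-displacement transducers in organ baths; preincubated 2 h with compound, then challenged with increasing carbachol concentrations; potency expressed against carbachol-induced contraction.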
# [2] = biological target: T1, Muscarinic acetylcholine receptor M3; test: Antagonist activity at human cloned muscarinic M3 receptor expressed in CHO cells assessed as inhibition of acetylcholine-induced calcium mobilization by FLIPR assay; assay type: functional, cell-based
# [3] = biological target: T1, Muscarinic acetylcholine receptor M3; test: Displacement of [3H]N-methyl scopolamine from human cloned muscarinic M3 receptor expressed in CHO cells coexpressing Gqi5 by scintillation proximity assay; assay type: cell-based
# In short: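 Scintillation proximity assay on membranes from CHO cells expressing human M1, M2 or M3 receptors, competing against 0.5 nM [3H]-N-methyl scopolamine; Ki reported as mean of three independent assays.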
# [4] = biological target: T1, Muscarinic acetylcholine receptor M3; test: Antagonist activity at human cloned muscarinic M3 receptor expressed in CHO cells assessed as inhibition of acetylcholine-induced calcium mobilization by single concentration kinetic based-FLIPR assay; assay type: functional, cell-based; conditions: read-out: pA2 (converted)
# In short: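 Human M3 receptor expressed in CHO cells; compounds tested against a single acetylcholine concentration with calcium mobilization read by FLIPR to give IC50; values are means of two or more independent assays.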
smiles,measurement,setting,value
OC(c1ccccc1)(c1ccccc1)C12CC[N+](CCOCc3ccccc3)(CC1)CC2.[Br-] [UMECLIDINIUM BROMIDE],Kb,[1],0.316 nM
same,IC50,[2],< 10 nM
same,Ki,[3],0.06 nM
same,Kb,[4],0.0316 nM
